Water solubility values, as collected for the OPERA models

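The numbers are reported measurements, compiled and curated for the OPERA QSAR suite. The files give a single number for a compound and property, which may rest on several reports. How each value was measured is not recorded, so precision varies. Where a salt, mixture or single isomer is drawn, the source does not say that exactly this form was tested. Unmarked limits or estimates from the upstream databases cannot be ruled out.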

Solubility in water is on a log10 molar scale (set defined at 25 °C).

SMILES,log S (log10 mol/L)
CC(=O)O[C@@]12CCC[C@@](C)(CC[C@@H]3[C@@H]1CC3(C)C)C2,-4.221
C=C1[C@H](CO)[C@@H](O)C[C@@H]1n1cnc2c(=O)[nH]c(N)nc21,-2.063
Cc1cc(C(=O)NCCc2ccc(S(=O)(=O)NC(=O)NN3CCCCCC3)cc2)no1,-3.64
CC(=O)OCCC1=CC[C@H]2C[C@@H]1C2(C)C,-4.05
CC(=O)Nc1ccc(F)cc1-c1ccc(Cl)c(Cl)c1,-4.571
CCCCOCCOCCOC(=O)CCC(=O)OCCOCCOCCCC,-2.108
O=S(=O)(O)c1cc(O)c2ccc(Nc3ccccc3)cc2c1,-2.729
Nc1ccc(-c2ccc(N)c3c2C(=O)c2ccccc2C3=O)c2c1C(=O)c1ccccc1C2=O,-7.25
Cc1cc(C2(c3ccc(O)c(C)c3)CCCCC2)ccc1O,-5.372
CC(C)CC(C)OCC(O)CO (stereo not given),-1.25
CC(C)C(=O)/C(=C/c1ccccc1)C(=O)Nc1ccccc1,-4.45
COc1cc(NC(=O)C(N=Nc2ccc(-c3ccc(N=NC(C(C)=O)C(=O)Nc4cc(OC)c(Cl)cc4OC)c(Cl)c3)cc2Cl)C(C)=O)c(OC)cc1Cl (stereo not given),-8.005
CCc1ccc(C2OC3COC(c4ccc(CC)cc4)OC3C(C(O)CO)O2)cc1 (stereo not given),-6.976
O=C(Nc1ccccc1SSc1ccccc1NC(=O)c1ccccc1)c1ccccc1,-6.978
CCCCCCCCN1CCCC1=O,-2.274
O=C1c2ccccc2C(=O)C1c1nc2ccccc2c(Br)c1O,-4.867
O=CC(N=C(O)OCc1ccccc1)C(O)C(O)C(O)CO (stereo not given),-1.74
Nc1ccc(C(=O)OCCCOC(=O)c2ccc(N)cc2)cc1,-4.895
O=C1c2ccccc2C(=O)c2c1ccc1c2[nH]c2ccc3c4ccccc4c(=O)c4ccc1c2c43,-5.507
CCC(O)(CC)C(=O)O,-0.706
CC(=O)OCCCc1ccc(S(N)(=O)=O)cc1,-2.206
CCCCCCCCCc1ccc(OCC(=O)O)cc1,-3.843
C[C@@H]1OC(O)[C@@H](O)[C@H](O)[C@@H]1O (stereo partly drawn),0.778
O=C1C=CC(=O)O1,-1.3
O=C1CCCCCCCC=CCCCCCCO1,-5.911
NC(=O)N[C@H]1CC[C@H](NC(N)=O)CC1,-2.596
Fc1cc(Br)cc(F)c1F,-3.057
CCCCCCCCCCCCCCCCCCNC(=O)CCCCCCCCCCCCCCCCC,-7.028
CC(=O)OC1(C)CCOC(CC(C)C)C1 (stereo not given),-2.42
O[C@]1(c2ccc(Cl)cc2)CCCCC[C@@H]1n1cncn1,-3.368
COCCc1ccccc1,-2.3
CCCCCCCC/C=C\CCCCCCCCNCCCNCCCN,-3.718
COc1ccc([C@@H]2CC(=O)c3c(O)cc(O[C@@H]4O[C@H](CO[C@@H]5O[C@@H](C)[C@H](O)[C@@H](O)[C@H]5O)[C@@H](O)[C@H](O)[C@H]4O)cc3O2)cc1O,-4.935
Cc1cc(O)c(C(C)C)cc1C1(c2cc(C(C)C)c(O)cc2C)OC(=O)c2ccccc21,-8.221
C=C[C@@H]1C[C@]1(NC(=O)[C@@H]1C[C@@H](Oc2ncc(OC)c3ccc(Cl)cc23)CN1C(=O)[C@@H](NC(=O)OC(C)(C)C)C(C)(C)C)C(=O)NS(=O)(=O)C1CC1,-4.175
COC(=O)c1ccc(C(=O)Nc2cc(Cl)ccc2Cl)cc1/N=N/c1c(O)c(C(=O)Nc2ccccc2OC)cc2ccccc12,-8.175
CCCCCCCCCC(=O)N(C)C,-2.759
O=C1NC(=O)c2cccc3cccc1c23,-4.693
Cc1ccc2[nH]c3cc4c(=O)c5cc(C)ccc5[nH]c4cc3c(=O)c2c1,-7.784
O=C1c2ccc(O)c(O)c2C(=O)c2c(O)ccc(O)c21,-5.02
CN(C)CCc1c[nH]c2ccc(C[C@H]3COC(=O)N3)cc12,-3.18
Nc1ccc(S(=O)(=O)O)cc1S(=O)(=O)O,-1.77
CN1C(=O)CC(C)(c2ccccc2)C1=O (stereo not given),-1.98
Cc1ccc2nc(-c3ccc(N)cc3)sc2c1,-3.68
Cc1cn([C@H]2C[C@H](O)[C@@H](CO)O2)c(=O)[nH]c1=O,-0.711
CC(C)C1CCCCC1,-5.312
CC(C)c1ccc(C#N)cc1,-2.989

The last 5 entries again:

{"smiles": "CN1C(=O)CC(C)(c2ccccc2)C1=O", "stereo": "stereo not given", "log S (log10 mol/L)": "-1.98"}
{"smiles": "Cc1ccc2nc(-c3ccc(N)cc3)sc2c1", "log S (log10 mol/L)": "-3.68"}
{"smiles": "Cc1cn([C@H]2C[C@H](O)[C@@H](CO)O2)c(=O)[nH]c1=O", "log S (log10 mol/L)": "-0.711"}
{"smiles": "CC(C)C1CCCCC1", "log S (log10 mol/L)": "-5.312"}
{"smiles": "CC(C)c1ccc(C#N)cc1", "log S (log10 mol/L)": "-2.989"}

Values as listed in the OPERA 2.9 repository of K. Mansouri.